Only some compounds are listed: those with a hit (about 1% of all), similar ones and a draw of the others.
Luc counter = blocks Kinase-Glo luciferase, a counter-screen artifact | Kinase-Glo luciferase, ATP luminescence, 8 min | Potency, µM (series often up to 38.3 µM), for inactives: top-dose activity change, negative = inhibition, actives largely listed as inhibitors | 0.28% of 200,000 active | AID 1379; also: potency is read from the fitted curve at half-maximal effect; % is scaled to controls: 0 for no effect and ±100 for the full control effect; nearly all actives have a fitted effect of over 60% in size
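Substrate mix (final 50 mM imidazole pH 7.2, 50 mM KCl, 7 mM MgCl2, 10 uM ATP, 0.01% Tween 20, 0.05% BSA) plus pin-tool compound, then Kinase-Glo detection mix; 8 min ambient, luminescence read.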
RXFP1 antag = blocks the human relaxin receptor RXFP1 | Q9HBX9 | HEK293-RXFP1, relaxin-stimulated cAMP HTRF, 30 min; stronger effect = lower value | activity change, negative = inhibition, % at 57.5 µM | 0.59% of 350,000 active | AID 1259400;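 active = activity change of -60% or lower, but not beyond a set lower limit; inconclusive = change between -60% and -40%, or beyond the set limit; inactive = change above -40%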; also: % is scaled to controls: 0 for no effect and ±100 for the full control effect
miR-21 reporter = miR-21 reporter, rising signal. HeLa miR-21 FLuc reporter, luciferase, 48 h. Potency, µM (titrated, usually from 38.3 µM), without a hit: at the top dose reporter change, positive = more light. 340,000 tested, under 10 active. AID 2288; active = well fitted rising curve with a large enough effect; inconclusive = small, poorly fitted or top-dose-only effect; inactive = no such curve, though single readings can be large or run the other way;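 also: % of control where 0% means no effect; miR-21 action dims this reporter so a rising signal means less miR-21 action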
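Compounds were titrated across several concentrations (up to approximately 40 uM) and incubated 48 hours with HeLa miR-21-FLuc reporter cells (miR-21 target sequence downstream of FLuc, endogenous miR-21). Readout was firefly luciferase luminescence after lytic detection reagent.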
gsp antagonist = gsp mutant antagonism; gsp-mutant cells, cAMP HTRF, 30 min; Potency, µM (top dose mostly 76.9 µM), inactives show at the highest dose activity change, negative = inhibition, most hits filed as inhibitors; 0.4% of 340,000 active; calls by dose curve; cell line not stated here;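 also: intracellular cAMP measured with PDE inhibitor Ro 20-1724 present during compound exposure; potency is read from the fitted curve at half-maximal effect; % is scaled to controls: 0 for no effect and ±100 for the full control effect; nearly all actives have a fitted effect of over 65% in size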
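Cells, 2000/well, grown 16–24 h in DMEM 10% FBS with 0.5 mg/ml G418, then compounds plus […] (300 uM addition stock), 30 min at 37C. cAMP read by HTRF (cAMP-d2 and anti-cAMP antibody-K in lysis buffer) after 30 min RT.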
RXFP1 ag = RXFP1 (human) receptor agonism; Q9HBX9; HEK293T-RXFP1 cAMP TR-FRET, 30 min; response scale: percent of porcine relaxin response, buffer zero; AID 2676; Potency, µM (doses to about 57.5 µM), without a hit: top-dose activation, most hits filed as activators; 0.3% of 370,000 active; also: potency is read from the fitted curve at half-maximal effect; % is scaled to controls: 0 for no effect and ±100 for the full control effect; nearly all actives have a fitted effect of over 60% in size
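cAMP rise read by TR-FRET after 30 min, 37C compound exposure (up to 58 uM) in RXFP1-transfected HEK293 cells with Ro 20174 present. EC50 from Hill-equation fits, with 29 nM porcine relaxin as 100% and buffer as basal.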
gsp ag = agonists of gsp mutant (McCune-Albright syndrome). gsp mutant cells, cAMP HTRF, 30 min. Potency, µM (series often up to 76.9 µM), for the others: at the highest dose activation (cAMP increase), usual class: activators. 0.13% of 340,000 active. AID 624287; active = well fitted activation curve with a large enough effect; inconclusive = small, poorly fitted or top-dose-only effect, or another doubt; inactive = no such curve, though single readings can be large or run the other way; cell line not stated here;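 also: phosphodiesterase inhibitor Ro 20-1724 added with compounds to block cAMP breakdown; potency is read from the fitted curve at half-maximal effect; nearly all actives have a fitted effect of over 60% in size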
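Cells stably selected in G418 were plated at 2000/well, grown 16-24 hr, then given compounds in DMSO with the PDE inhibitor […] (300 uM solution added) for 30 min at 37C; cAMP was read by HTRF.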
An asterisk follows results filed as active; ? = inconclusive; / = not tested or not shown; [ ] = remark or other dose. Unless noted, calls follow the shape of the dose curve; as a rule, active = well fitted curve in the direction sought with a large enough effect; inconclusive = small, poorly fitted or top-dose-only effect, or another doubt; inactive = no such curve, though single readings can be large; an effect the other way counts as inactive or inconclusive.

| Molecule | Luc counter | RXFP1 antag | miR-21 reporter | gsp antagonist | RXFP1 ag | gsp ag |
| --- | --- | --- | --- | --- | --- | --- |
| O=C(N/N=C/c1c(Cl)cccc1Cl)c1ccc(F)cc1 | 0% | -7 | -23% | 1% | 2% | 22% |
| Cc1cc(C(=O)COC(=O)c2ccc(NC(=O)CC#N)cc2)c(C)n1CC(F)(F)F | / | -1 | / | / | / | 11% |
| Cc1cc(C(=O)COC(=O)c2ccc(NC(=O)CC#N)cc2)c(C)n1-c1ccc(OC(F)F)cc1 | / | -62* | / | -9% | / | 1% |
| CCCCCCCCCCCCCCCCCCNC(=O)OC1CCN(C(=O)OC[C@H](COC(=O)N(Cc2cccc[n+]2CC)C(=O)c2ccccc2OC)OC)CC1 | / | -26 | / | / | / | / |
| Cc1ccc(S(=O)(=O)NCCC(=O)NC(C)CCc2ccccc2)cc1 (stereo not drawn) | / | -62* | / | -6% | 0% | 1%[15.4 µM] |
| Cc1ccc(S(=O)(=O)NCCC(=O)NC(C)c2ccccc2)cc1 (stereo not drawn) | / | 19 | 0% | -2% | -2% | ? |
| CCn1c(SCC(=O)N2CCN(C)CC2)nc2c1c(=O)n(C)c(=O)n2C | / | -5 | 1% | 3% | 25% | ? |
| CCn1c(SCC(=O)Nc2ccc(NC(C)=O)cc2)nc2c1c(=O)n(C)c(=O)n2C | / | 23 | -2% | 7% | 16µM* | 64%[15.4 µM] |
| CCn1c(SCC(=O)N2CCCC2)nc2c1c(=O)n(C)c(=O)n2C | 3% | -5 | -10% | 15% | 16% | 8.9µM* |
| CCn1c(SCC(=O)Nc2ccc(OC)cc2)nc2c1c(=O)n(C)c(=O)n2C | / | 4 | 0% | 6% | 30% | 11%[15.4 µM] |
| CCc1ccc(NC(=O)CSc2nc3c(c(=O)n(C)c(=O)n3C)n2C)cc1 | 3% | -4 | -1% | 4% | 5% | -38% |
| CCCn1c(SCC(=O)Nc2ccc(NC(=O)CC)cc2)nc2c1c(=O)n(C)c(=O)n2C | / | -1 | 0% | 5% | 20µM* | 20%[15.4 µM] |
| CCCCCN1C=CC(=C2C(=O)c3ccccc3C2=O)C=C1 | 2.8µM* | -4 | ? | 3% | 1% | -7% |
| CC1=CC(=C2C(=O)c3ccccc3C2=O)C=C(C)N1C | -7% | -6 | -31% | -6% | 0% | -12%[15.4 µM] |
| O=P1(Nn2cnnc2)C=C(c2ccccc2)OC(c2ccccc2)=C1 | -2% | -10 | -5% | 4% | -1% | -70% |
| CC[N+](CC)(CCCCS(=O)(=O)[O-])CCNP1(=O)C=C(c2ccccc2)OC(c2ccccc2)=C1 | -3% | 5 | 0% | 25% | 16µM* | ? |
| N#CC1(NC(=O)COC(=O)c2ccccc2[N+](=O)[O-])CCCCC1 | / | 4 | / | 1% | 0% | -51% |
| O=C(COC(=O)c1ccccc1[N+](=O)[O-])c1ccc(C2CCCCC2)cc1 | 11µM* | -9 | -13% | -29% | 0% | -28% |
| COc1ccccc1C1CCN(C(=O)c2ccc(C(C)(C)C)cc2)CC1 | / | -90* | 0% | -37% | -1% | 33%[15.4 µM] |
| COc1ccccc1N1CCN(C(=O)c2ccc(C(C)(C)C)cc2)CC1 | 1% | -24 | 2% | -8% | 0% | 27% |
| COc1ccc(NC(=O)CCn2c(-c3ccc(F)cc3)cc(C(C)=O)c2C)c(OC)c1 | / | -31 | 11% | / | -1% | / |
| CC1CCCC(C)N1C(=O)CSCc1ccc(Cl)cc1 (stereo not drawn) | -4% | 39 | -10% | 35µM* | 0% | -43% |
| COc1ccc2nc3oc(C(=O)NCCCOC(C)C)cc3cc2c1 | / | -7 | -12% | 50µM* | 6% | ? |
| C/C(=N/NC(=O)c1ccncc1)C(=O)O | / | 1 | / | / | / | / |
| CC(=O)Nc1cccc(NC(=O)/C=C/c2ccc(S(=O)(=O)N3CCOCC3)cc2)c1 | / | -14 | / | -7% | / | -18%[15.4 µM] |
| Cc1ccc(NC(=O)/C=C/c2ccc(S(=O)(=O)N3CCOCC3)cc2)cc1S(=O)(=O)N(C)C | / | -25 | / | 35µM* | / | 13%[15.4 µM] |
| Nc1c(I)cc(I)c(C(=O)N(CCC(=O)O)c2ccccc2)c1I | / | -19 | / | / | / | / |
| N#CCCN(C(=O)CSc1n[nH]c(=O)[nH]c1=O)c1ccccc1 | / | 0 | / | 9% | / | -1% |
| Cc1ccc(N(CCC#N)C(=O)CSc2nc3ccccc3c(=O)[nH]2)cc1 | / | -3 | / | 50µM* | 4% | -7% |
| Cc1ccc(C(=O)NCCSc2c(C)[nH]c3ccccc23)cc1[N+](=O)[O-] | 4% | -30 | 7% | 35µM* | 2% | -39% |

Single records, from the list above. Order of values: Luc counter | RXFP1 antag | miR-21 reporter | gsp antagonist | RXFP1 ag | gsp ag
Listed for `Cc1ccc(NC(=O)/C=C/c2ccc(S(=O)(=O)N3CCOCC3)cc2)cc1S(=O)(=O)N(C)C` = / | -25 | / | 35µM* | / | 13%[15.4 µM]
Listed for `COc1ccccc1N1CCN(C(=O)c2ccc(C(C)(C)C)cc2)CC1` = 1% | -24 | 2% | -8% | 0% | 27%

Other results:
Every second line gives: Luc counter	RXFP1 antag	miR-21 reporter	gsp antagonist	RXFP1 ag	gsp ag
COc1cccc(C2C(C(=O)Nc3ccccc3)=C(C)Nc3nnnn32)c1OC (stereo not drawn)
→ /	2	11%	/	-2%	/
O=[N+]([O-])c1ccc(N=Nc2ccc(O)c3ccccc23)cc1
→ /	?	/	25µM*	/	16%
COc1ccc(CCNC(=O)C2CCC(=O)N(C3CCCCCC3)C2)cc1 (stereo not drawn)
→ /	1	0%	50µM*	-2%	?
CC(C)Oc1ccc(CCNC(=O)C2CCC(=O)N(C3CCCCCC3)C2)cc1 (stereo not drawn)
→ /	-5	5%	-1%	3%	?
Cc1cccc(NC(=O)COc2ccccc2C(=O)NC(C)c2ccccc2)c1 (stereo not drawn)
→ /	-18	-1%	28µM*	-1%	-20%
Cc1cccc(NC(=O)c2ccccc2OCC(=O)c2ccccc2)c1
→ -3%	2	-5%	-6%	0%	0%
CC(C)c1ccc(OCC(=O)Nc2cccc(C(=O)Nc3ccccc3C(=O)O)c2)cc1
→ -1%	-66*	0%	-7%	0%	0%[15.4 µM]
CCn1c(=O)c2sccc2n2c(CCC(=O)Nc3ccc(C(C)C)cc3)nnc12
→ /	/	12%	/	10%	/
O=C(NCc1ccccn1)c1ccc(Cn2c(=S)[nH]c3ccc(Br)cc3c2=O)cc1
→ 1%	-12	-12%	?	2%	5%[15.4 µM]
CCOc1cc2[nH]c(=S)n(Cc3ccc(C(=O)NCCCOC)cc3)c(=O)c2cc1OCC
→ /	-4	0%	13%	?	18%

Two entries from above, with each value named.
structure: C/C(=N/NC(=O)c1ccncc1)C(=O)O
  Luc counter = /
  RXFP1 antag = 1
  miR-21 reporter = /
  gsp antagonist = /
  RXFP1 ag = /
  gsp ag = /

structure: O=P1(Nn2cnnc2)C=C(c2ccccc2)OC(c2ccccc2)=C1
  Luc counter = -2%
  RXFP1 antag = -10
  miR-21 reporter = -5%
  gsp antagonist = 4%
  RXFP1 ag = -1%
  gsp ag = -70%

The list goes on:
Every second line gives: Luc counter	RXFP1 antag	miR-21 reporter	gsp antagonist	RXFP1 ag	gsp ag
O=C(NCc1ccccn1)c1ccc(Cn2c(=S)[nH]c3ccccc3c2=O)cc1
→ 0%	-77*	-12%	-2%	2%	-135%
COC(=O)c1ccc2c(=O)n(Cc3ccc4c(c3)OCO4)c(=S)[nH]c2c1
→ /	6	1%	10%	?	-7%
COCCNC(=O)c1ccc(Cn2c(=S)[nH]c3cc4c(cc3c2=O)OCO4)cc1
→ 5%	-104*	-8%	-1%	3%	-5%
COC(CNC(=O)c1ccc(Cn2c(=S)[nH]c3cc4c(cc3c2=O)OCO4)cc1)OC
→ /	-98*	-19%	-9%	4%	-9%
Brc1ccc(C2=N[C@@H](Cc3ccccc3)CO2)cc1
→ 0%[39.9 µM]	/	/	/	/	/
